From PMC11982464, “Structural insight into the catalytic mechanism of the bifunctional enzyme L-fucokinase/GDP-fucose pyrophosphorylase” (The Journal of Biological Chemistry, 2025)

System: Nc1ncnc2c1ncn2[C@@H]1O[C@H](COP(=O)(O)OP(=O)(O)OP(=O)(O)O)[C@@H](O)[C@H]1O
Test: purified protein
Settings: Hill fit (sigmoidal), co-substrate L-fucose, 50 mM Hepes pH 7.5, 2 mM MnCl2

Row | Substance | Km [mM] | kcat [s⁻¹] | kcat/Km [M⁻¹ s⁻¹] | Km (fucokinase site) [mM] | kcat (fucokinase site) [s⁻¹] | kcat/Km (fucokinase site) [M⁻¹ s⁻¹]
1 | FKP-CTD (Bacteroides fragilis) | 4.4 ± 0.5 | 2.6 | 600 | – | – | –
2 | FKP-FL (L-fucokinase/GDP-β-L-fucose pyrophosphorylase, full length) (Bacteroides fragilis) | – | – | – | 1.8 ± 0.1 | 3.8 | 2100
